Here are results for one substance from publication PMC7383964 (Chemmedchem, 2020).

Only a part of the results on these compounds is given; other tests are left out.

The assay has as its target human δ‐OR (Homo sapiens, UniProt P41143). Put plainly: Radioligand competition binding with [^3H]diprenorphine, membranes of transiently transfected HEK293T cells. The conditions noted are these: read-out: K D of the radioligand for δ‐OR. (Displacement assays read how much labelled ligand stays bound in the presence of the test substance.)

Consider [^3H]diprenorphine, for which the Kd was 0.24 nM.
